Some of the results follow.
Tested on: A. baumannii ATCC 17978
Test: relative growth (fraction of control); higher = less inhibition
Details: 50 µM

First: COc1ccc(S(=O)(=O)N2C[C@H](O)COC[C@H]3O[C@@H](CC(=O)NCc4ccc(Cl)c(Cl)c4)CC[C@@H]32)cc1
Second: O=C(C[C@H]1CC[C@@H]2[C@H](COC[C@@H](O)CN2S(=O)(=O)c2ccc(F)cc2)O1)N[C@H]1CCN(Cc2ccccc2)C1
The relative growth of the first is lower: 0.932 for the first, 0.94 for the second.

Compared with C[C@H](CO)N1C[C@H](C)[C@@H](CN(C)C(=O)Nc2ccccc2F)Oc2cc(C#CCN(C)C)ccc2S1(=O)=O, Cc1noc(C)c1NC(=O)N(C)C[C@H]1Oc2cc(C#CCN(C)C)ccc2S(=O)(=O)N([C@@H](C)CO)C[C@H]1C is higher in relative growth: 1.06 for the first, 1.11 for the second.

Going from O=C([O-])CCNC(=O)c1ccc(/N=N/c2ccc(O)c(C(=O)[O-])c2)cc1.[Na+].[Na+] to Cc1c(C(=O)Nc2ccc3ccccc3c2)oc2ccccc12, the relative growth rises from 0.931 to 0.96.

Compared with O=C(C[C@H]1C=C[C@H](NS(=O)(=O)c2ccc(F)cc2)[C@H](CO)O1)N1CCC(Cc2ccccc2)CC1, O=C1N[C@H](Cc2ccccc2)COC(=O)[C@@H](Cc2ccc(F)cc2)CCC=CC[C@@H]1CC(=O)N(CCO)Cc1ccccc1 is higher in relative growth: 0.75 for the first, 0.982 for the second.

First: O=c1ccc2ccccc2o1
Second: NC(=O)c1cc2ccccc2oc1=O
The relative growth of the first is lower: 1.07 for the first, 1.15 for the second.

First: CC1(C)C=Cc2cc3ccc(=O)oc3cc2O1
Second: C/C(=N\N)c1ccc2ccccc2c1
The relative growth of the first is higher: 0.964 for the first, 0.937 for the second.

Going from C[C@H](c1cccnc1)N(C(=O)Nc1ccccc1)C1CCCCC1 to C[C@H](CO)N1C[C@H](C)[C@H](CN(C)C(=O)Cc2cccnc2)Oc2cc(C#Cc3ccccc3F)ccc2S1(=O)=O, the relative growth falls from 1.06 to 0.803.

Compared with C/C(=C\CO)CC[C@H](C)CCC[C@H](C)CCCC(C)C, C[C@@H]1CN([C@@H](C)CO)S(=O)(=O)c2ccc(C#CCN(C)C)cc2O[C@H]1CN(C)C(=O)CN(C)C is lower in relative growth: 0.988 for the first, 0.916 for the second.

Going from Cc1ccc2nc(-c3ccc(/N=C\c4ccc[nH]4)cc3)sc2c1 to Cc1ccc(N2C(=O)c3ccccc3[C@](C)(C(=O)NCCN3CCOCC3)[C@@H]2c2ccc(CO)cc2)nc1, the relative growth falls from 1.13 to 1.04.

Going from Cc1[nH]c2ncnn2c(=O)c1CCC(=O)O to C=CCc1c(C)[nH]c(N)nc1=O, the relative growth falls from 1.14 to 0.979.

First: CCOC(=O)c1c(C)cc(O)cc1O
Second: COc1cc(CO)c(CC(=O)NN)cc1OC
The relative growth of the first is lower: 0.897 for the first, 0.922 for the second.

Going from COCC#Cc1cnc2c(c1)C(=O)N([C@@H](C)CO)C[C@H](C)[C@H](CN(C)C(=O)c1cnccn1)O2 to C[C@@H]1CN([C@H](C)CO)C(=O)c2cc(C#CCc3ccccc3)cnc2O[C@H]1CN(C)CC1CCOCC1, the relative growth rises from 1.03 to 1.15.

Compared with Cc1ccc(S[C@]2(C(=O)O)CC(=O)N(Cc3cc(C(F)(F)F)cc(C(F)(F)F)c3)[C@@H]2c2ccc(CO)cc2I)cc1, Cc1ccccc1S(=O)(=O)N(C)C[C@@H]1Oc2ccc(NC(=O)Nc3cccc(C(F)(F)F)c3)cc2CC(=O)N([C@@H](C)CO)C[C@@H]1C is lower in relative growth: 1.06 for the first, 0.857 for the second.

Going from COc1cccc(-c2cn(CC[C@@H]3CC[C@H](NS(=O)(=O)c4ccccc4Cl)[C@H](CO)O3)nn2)c1 to COc1ccccc1S(=O)(=O)N[C@@H]1CC[C@@H](CCNC(=O)C2CC2)O[C@@H]1CO, the relative growth rises from 1.01 to 1.08.

Going from COc1ccc(S(=O)(=O)N[C@H]2CC[C@H](CCNC(=O)CN3CCOCC3)O[C@@H]2CO)cc1 to COc1cccc(NC(=O)N2C[C@@H](O)COC[C@H]3O[C@@H](CC(=O)NCCCN4CCOCC4)CC[C@@H]32)c1, the relative growth falls from 1.06 to 1.02.

Going from CN(C)Cc1cn(CC[C@@H]2CC[C@@H](NC(=O)Cc3cccnc3)[C@@H](CO)O2)nn1 to COc1ccccc1CNC(=O)C[C@@H]1CC[C@H]2[C@@H](COC[C@H](O)CN2C(=O)Nc2ccc(F)cc2)O1, the relative growth falls from 1.16 to 1.07.

Going from C=CCOC(=O)[C@H]1[C@@H]2C(=O)O[C@@H](c3ccccc3)[C@@H](c3ccccc3)N2[C@@H](c2ccc(OCCOC(=O)[C@H]3C[C@H]4C(=O)N5CCC[C@H]5C(=O)N4[C@H]3c3cccc(OCCO)c3)cc2)[C@]12C(=O)Nc1ccccc12 to COCCOC(=O)N1C(=O)[C@@]2(c3ccccc31)[C@H](C(=O)N1CCCCCCC1)[C@H]1C(=O)O[C@H](c3ccccc3)[C@H](c3ccccc3)N1[C@@H]2c1ccccc1OCCO, the relative growth rises from 0.95 to 1.08.

First: COc1ccc([Si](C)(C)[C@@H]2[C@@H](CC(=O)N3CCC[C@H]3CO)O[C@]3(C(=O)N(Cc4cccc(N5CCCCC5=O)c4)c4ccccc43)[C@H]2C)cc1
Second: O=C1c2ccccc2[C@@]2(Cc3ccccc3N(C3CC3)C2=O)[C@H](c2ccc(CO)cc2)N1Cc1ccccc1
The relative growth of the first is higher: 1.11 for the first, 0.916 for the second.

Compared with COc1c(N2C[C@@H]3CCCN[C@@H]3C2)c(F)cc2c(=O)c(C(=O)O)cn(C3CC3)c12.Cl, COc1c(N2CCNC(C)C2)c(F)cc2c(=O)c(C(=O)O)cn(C3CC3)c12 (stereo unspecified) is lower in relative growth: 0.149 for the first, 0.148 for the second.

Going from COc1ccc(S(=O)(=O)N(C)C[C@@H]2Oc3cc(C#CC4CC4)ccc3S(=O)(=O)N([C@H](C)CO)C[C@H]2C)cc1 to C[C@H]1CN([C@@H](C)CO)S(=O)(=O)c2ccc(Br)cc2O[C@@H]1CN(C)C(=O)C1CCCCC1, the relative growth falls from 1.11 to 0.831.

Going from NC(=O)C1CCN(C(=O)c2ccco2)CC1 to O=C(NCc1ccco1)c1nc2ncccn2n1, the relative growth falls from 1.14 to 0.988.

First: Nc1nc2c(ncn2COC(CO)CO)c(=O)[nH]1.O
Second: Nc1ncnc2c1ncn2C1O[C@H](COP(=O)(O)OP(=O)([O-])OP(=O)([O-])O)[C@@H](O)[C@H]1O.[Na+].[Na+] (stereo partly specified)
The relative growth of the first is higher: 1.41 for the first, 0.998 for the second.

Compared with CO[C@@H]1CN(C)C(=O)c2cc(NS(=O)(=O)c3cn(C)cn3)ccc2OC[C@H](C)N(Cc2cccc(F)c2)C[C@@H]1C, O=C(C[C@@H]1CC[C@@H]2[C@H](COC[C@@H](O)CN2S(=O)(=O)c2cccc(F)c2)O1)NCCCN1CCOCC1 is higher in relative growth: 0.861 for the first, 0.971 for the second.

First: CC1(C)C(=O)C=C[C@@]2(C)C1CC(=O)[C@]1(C)C2CC[C@@]2(C)[C@H](c3ccoc3)OC(=O)[C@H]3O[C@]321 (stereo partly specified)
Second: NNC(=O)CCCC[C@H]1SC[C@H]2NC(=O)N[C@H]21
The relative growth of the first is lower: 0.956 for the first, 0.978 for the second.

Compared with OCc1ccccc1O, N[C@@H](C(=O)O)[C@@H](O)[C@H](O)[C@H](O)CO is lower in relative growth: 1.09 for the first, 0.952 for the second.

With FC(F)(F)COCC(F)(F)F the relative growth was 0.971.

Source: published antibiotic growth screens (doi:10.1038/s41589-023-01349-8)
